Earlier results, collected in article PMC3638018.

Sequences of proteins named here, by UniProt entry; tags and fusion partners are left off. Residues count along the entry.
UniProt P21583, 26-190: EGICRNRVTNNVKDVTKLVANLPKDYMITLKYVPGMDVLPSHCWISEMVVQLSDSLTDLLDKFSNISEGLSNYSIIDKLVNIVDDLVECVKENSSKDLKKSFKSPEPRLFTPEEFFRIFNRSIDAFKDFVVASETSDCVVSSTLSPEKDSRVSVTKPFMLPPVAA

Target: c-Kit (Homo sapiens) (UniProt P10721)

SCF (from UniProt P21583)
Kd: 2 nM
